Test results reported in ChEMBL document CHEMBL1136008, “Novel tricyclic poly(ADP-ribose) polymerase-1 inhibitors with potent anticancer chemopotentiating activity: design, synthesis, and X-ray cocrystal structure” (J Med Chem, 2002).

Legend:
A549 [1] = test: Influence of PARP-1 cellular activity on NAD+ levels at a concentration of 25 uM of the compound; conditions: Homo sapiens
A549 [2] = test: Influence of PARP-1 cellular activity in human lung carcinoma A549 cells on %ADP Polymer formation at a concentration of 25 uM of the compound

`CN(N=O)C(=N)N[N+](=O)[O-].Cn1c(-c2ccccc2)c2c3c(cccc31)C(=O)NCC2` showed an NAD+ level (A549 [1]) of 24% and an ADP formation (A549 [2]) of 105%.
`CN(C)Cc1ccc(-c2[nH]c3cccc4c3c2CCNC4=O)cc1.CN(N=O)C(=N)N[N+](=O)[O-]` showed an NAD+ level (A549 [1]) of 87% and an ADP formation (A549 [2]) of 6%.
`CN(N=O)C(=N)N[N+](=O)[O-].O=C1NCCc2c(-c3ccccc3)[nH]c3cccc1c23` gave an NAD+ level (A549 [1]) of 81% and an ADP formation (A549 [2]) of 13%.
`CN(N=O)C(=N)N[N+](=O)[O-]` was tested, and the NAD+ level (A549 [1]) was 21% and the ADP formation (A549 [2]) was 100%.
